{
  "sequences": {"note": "Protein sequences, listed by entry. Tags and fused reporters are not part of them. Residues count along the entry.", "UniProt Q16881, 151-649 limits assumed": "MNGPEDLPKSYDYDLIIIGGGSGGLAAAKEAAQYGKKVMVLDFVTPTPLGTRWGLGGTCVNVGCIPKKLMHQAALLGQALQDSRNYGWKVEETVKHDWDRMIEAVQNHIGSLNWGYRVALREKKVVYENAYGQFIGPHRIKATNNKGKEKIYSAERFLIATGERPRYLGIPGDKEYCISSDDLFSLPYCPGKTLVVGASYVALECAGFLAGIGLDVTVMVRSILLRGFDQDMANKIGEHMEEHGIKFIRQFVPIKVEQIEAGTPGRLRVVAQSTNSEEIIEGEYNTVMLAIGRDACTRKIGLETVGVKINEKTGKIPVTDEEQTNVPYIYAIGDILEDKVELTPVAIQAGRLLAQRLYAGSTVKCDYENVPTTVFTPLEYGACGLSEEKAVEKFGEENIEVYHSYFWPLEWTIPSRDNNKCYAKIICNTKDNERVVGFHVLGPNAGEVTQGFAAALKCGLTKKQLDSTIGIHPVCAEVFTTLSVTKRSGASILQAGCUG"},
  "source": "patent US20120226031A1",
  "about": "“PALMARUMYCIN BASED INHIBITORS OF THIOREDOXIN AND METHODS OF USING SAME” (ARIZONA BOARD OF REGENTS, ACTING ON BEHALF OF THE …, priority 2005, published 2012)",
  "key": {"[1]": {"tested_on": "MCF-7 human breast cancer cells", "assay": "MCF-7 breast cancer cell growth inhibition", "settings": "read-out: MCF-7 growth inhibition IC50; Table 1; tested form: TFA salt"}, "[2]": {"target": "human thioredoxin reductase (Homo sapiens, UniProt Q16881)", "assay": "Inhibition of purified human thioredoxin reductase (TrxR/TR)", "settings": "read-out: TrxR inhibitory activity IC50; Table 1; tested form: TFA salt"}},
  "data": [
    {"smiles": "NCC(=O)Oc1ccc2c3c(cccc13)OC1(C=CC(=O)c3ccccc31)O2", "note": "(centres unmarked)", "values": [
      {"measurement": "IC50", "setting": "[1]", "value": 2400, "unit": "nM"},
      {"measurement": "IC50", "setting": "[2]", "value": 1800, "unit": "nM"}
    ]}
  ]
}
